Here are results for 1 substance from paper PMC11199686.

By UniProt entry, the sequences of proteins in these tests, tags left out. Where a name states a change or a piece, a line headed by the entry shows the natural chain unless it says otherwise. Residues count along the entry.
UniProt P02679: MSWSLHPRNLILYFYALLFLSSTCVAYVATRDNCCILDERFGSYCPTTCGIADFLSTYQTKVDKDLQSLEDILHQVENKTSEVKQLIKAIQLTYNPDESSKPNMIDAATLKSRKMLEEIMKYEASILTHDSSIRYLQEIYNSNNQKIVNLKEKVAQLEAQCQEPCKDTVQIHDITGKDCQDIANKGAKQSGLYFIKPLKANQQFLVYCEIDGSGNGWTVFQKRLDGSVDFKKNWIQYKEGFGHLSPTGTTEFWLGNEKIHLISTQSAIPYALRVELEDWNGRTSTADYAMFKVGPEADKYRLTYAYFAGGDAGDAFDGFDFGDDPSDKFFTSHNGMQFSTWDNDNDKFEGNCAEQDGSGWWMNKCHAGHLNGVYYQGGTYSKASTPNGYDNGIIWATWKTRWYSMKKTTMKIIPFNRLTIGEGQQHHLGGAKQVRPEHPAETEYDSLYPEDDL
UniProt P02745, 23-245: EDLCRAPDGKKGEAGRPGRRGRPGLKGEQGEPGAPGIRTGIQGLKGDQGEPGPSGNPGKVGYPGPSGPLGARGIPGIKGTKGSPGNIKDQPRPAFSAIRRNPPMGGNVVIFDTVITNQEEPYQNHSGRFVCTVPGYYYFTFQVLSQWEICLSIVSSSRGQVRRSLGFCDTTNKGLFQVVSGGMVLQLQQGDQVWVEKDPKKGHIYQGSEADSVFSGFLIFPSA
C1q, UniProt P02746, 28-253: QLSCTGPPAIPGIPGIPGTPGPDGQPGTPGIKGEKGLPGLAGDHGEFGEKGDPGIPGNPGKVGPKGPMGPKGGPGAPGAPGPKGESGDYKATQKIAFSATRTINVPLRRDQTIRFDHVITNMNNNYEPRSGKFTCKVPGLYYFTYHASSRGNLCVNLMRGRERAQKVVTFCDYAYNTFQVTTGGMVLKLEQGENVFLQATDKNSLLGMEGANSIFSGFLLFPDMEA
C1q, UniProt P02747, 29-245: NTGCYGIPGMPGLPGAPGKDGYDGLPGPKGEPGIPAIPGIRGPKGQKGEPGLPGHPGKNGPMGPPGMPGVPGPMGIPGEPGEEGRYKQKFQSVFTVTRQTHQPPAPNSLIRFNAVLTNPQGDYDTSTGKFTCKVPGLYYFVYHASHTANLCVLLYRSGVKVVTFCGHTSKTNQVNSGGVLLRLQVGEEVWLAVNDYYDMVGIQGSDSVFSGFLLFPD

Experiment [1] has as its target fibrin clots formed in human plasma (human (endogenous in plasma)) (UniProt P02679). In words: co-sedimentation; time course: enhanced clots formed in plasma with 125I-ligand (25,000 cpm), eight times from 0 to 960 min at 37°C; washed three times with 10 mM HEPES, 70 mM NaCl, 0.5 mM EDTA, 5 M urea pH 7.4; what stays is judged covalently bound.
The target is the same in experiment [2]. In words: co-sedimentation; panel of 125I-labelled plasma proteins (25,000 cpm each) present while enhanced clots formed in plasma; 16 h, 37°C; clots washed three times in 10 mM HEPES, 70 mM NaCl, 0.5 mM EDTA, 5 M urea pH 7.4.
The target is the same in experiment [3]. In words: co-sedimentation; time course: enhanced clots formed in plasma with 125I-ligand (25,000 cpm), eight times from 0 to 960 min at 37°C; washed with HEPES-1/2-saline (non-denaturing).
The target is the same in experiment [4].
Experiment [5] shares this target. In words: co-sedimentation; clots formed in 45% human plasma with 20 mM CaCl2 in the presence of 125I-ligand (25,000 cpm), 40 min, 37°C, at about 70 mM, 140 mM or 1 M salt; clots spun at 1,000 x g and washed three times in reaction buffer; bound = input minus cpm in supernatants.

Regarding “C1q (from UniProt P02745 23-245; P02746 28-253; P02747 29-245) (complex)”, in experiment [1], the percent bound at 30 min, after urea wash amounted to 11% and the percent bound at 960 min, after urea wash amounted to 17.6%. Moreover, in experiment [2], the Protein incorporated into fibrin clots (%) worked out at 30.2% and the percent bound to fibrin clots worked out at 28.5%. Besides, in experiment [3], the percent bound after 16 h, non-denaturing wash was 24% and the percent bound at 30 min, non-denaturing wash was determined as 13%. Further, in experiment [4], the decrease in C4 activity (haemolytic C4 consumption assay) after clotting of factor H-depleted plasma, against factor H-depleted unclotted plasma was 65.3% and the decrease in C4 activity (haemolytic C4 consumption assay) after clotting of normal human plasma, against normal unclotted plasma was found to be 42.5%. Besides, the percent bound to plasma clots at 70 mM salt in experiment [5] was found to be 2.5%.
